Among the data in BindingDB's records for doi:10.1021/jm00062a001 (Upjohn Laboratories, 1993) are Ki values, retold here.

The experiment in a line: Binding affinity against 5-hydroxytryptamine 1A receptor from bovine hippocampus, used [3H]8-OH-DPAT as radioligand.

As usually defined, the Ki is the dissociation constant of the complex between target and ligand, obtained from inhibition or displacement. Higher therefore signals lower affinity.

On to `CCCN1CC[C@H]2c3c(O)cccc3CC[C@H]21` [(Recemic)3-Propyl-2,3,3a,4,5,9b-hexahydro-1H-benzo[e]indol-9-ol], for which the affinity corresponds to a Ki of 1.4 nM.
